Chains of the proteins cited; added tags and fusions are not shown.
UniProt O75762, whole entry, looked up: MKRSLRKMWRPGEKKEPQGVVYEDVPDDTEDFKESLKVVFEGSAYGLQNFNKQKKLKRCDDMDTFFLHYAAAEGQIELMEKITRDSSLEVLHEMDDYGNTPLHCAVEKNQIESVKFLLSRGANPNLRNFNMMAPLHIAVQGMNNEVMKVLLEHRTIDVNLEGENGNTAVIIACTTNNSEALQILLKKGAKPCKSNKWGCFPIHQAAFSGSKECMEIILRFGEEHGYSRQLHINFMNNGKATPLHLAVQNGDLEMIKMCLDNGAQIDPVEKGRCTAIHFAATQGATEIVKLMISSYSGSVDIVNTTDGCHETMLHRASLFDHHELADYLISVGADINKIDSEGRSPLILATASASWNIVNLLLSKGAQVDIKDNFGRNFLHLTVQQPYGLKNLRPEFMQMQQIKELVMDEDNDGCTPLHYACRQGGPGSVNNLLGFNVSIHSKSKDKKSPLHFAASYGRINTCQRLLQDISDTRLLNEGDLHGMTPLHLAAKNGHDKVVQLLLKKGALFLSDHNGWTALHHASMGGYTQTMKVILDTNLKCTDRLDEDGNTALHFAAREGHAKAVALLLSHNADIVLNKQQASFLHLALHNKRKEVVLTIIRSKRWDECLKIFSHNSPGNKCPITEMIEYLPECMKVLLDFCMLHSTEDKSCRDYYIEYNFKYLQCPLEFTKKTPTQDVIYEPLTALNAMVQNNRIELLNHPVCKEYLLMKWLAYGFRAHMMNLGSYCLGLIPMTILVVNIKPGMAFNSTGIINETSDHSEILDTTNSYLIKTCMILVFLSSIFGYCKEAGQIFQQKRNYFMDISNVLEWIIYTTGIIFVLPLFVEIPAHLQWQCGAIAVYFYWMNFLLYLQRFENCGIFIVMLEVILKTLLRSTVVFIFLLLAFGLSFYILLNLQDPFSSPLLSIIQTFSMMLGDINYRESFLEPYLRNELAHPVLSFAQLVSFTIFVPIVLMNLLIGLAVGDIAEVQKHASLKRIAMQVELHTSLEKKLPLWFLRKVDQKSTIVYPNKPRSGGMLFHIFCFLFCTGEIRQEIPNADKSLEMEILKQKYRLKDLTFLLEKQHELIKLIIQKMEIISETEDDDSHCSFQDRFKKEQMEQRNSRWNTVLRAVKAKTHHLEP

In ChEMBL document CHEMBL1221170, “Sensing with TRP channels” (Nat Chem Biol, 2005):

Biological target: Transient receptor potential cation channel subfamily A member 1 (Homo sapiens) (UniProt O75762)
Assay: Agonist activity at TRPA1
Type: functional

## C=CCN=C=S
  Activity: 10 µM
